## Antibody variant affinities, Ab-14 light chain, assay B

Reference: Li et al. 2023, doi:10.1038/s41467-023-39022-2. File: FLAb, binding data.

Binding partner: SARS-CoV-2 spike HR2 peptide, sequence PDVDLGDISGINAS.

Each scFv is VH, a (GGGGS)3 linker, VL, as in the parent Ab-14, and differs from it in the CDRs of the light chain only.
VH: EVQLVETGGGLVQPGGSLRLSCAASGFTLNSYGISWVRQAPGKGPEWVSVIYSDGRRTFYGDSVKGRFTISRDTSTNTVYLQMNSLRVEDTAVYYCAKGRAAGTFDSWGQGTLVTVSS
VL: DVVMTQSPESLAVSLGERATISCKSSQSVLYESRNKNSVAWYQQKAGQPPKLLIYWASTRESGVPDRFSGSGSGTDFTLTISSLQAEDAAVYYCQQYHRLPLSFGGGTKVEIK

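Phage display of a naive human antibody library on the peptide gave the parent. Designed CDR sequences, proposed from the first random library and measured here. Group labels follow the data file (Ctrl: baseline library sampled from a position-specific scoring matrix, with some repeated check sequences; Rand: our label for a block that the file lists under HC and that is probably the random mutants of the ten best first-round binders; GP: Gaussian process model; HC: hill climbing; Gen: genetic algorithm; Gibbs: Gibbs sampling; a sequence that several methods proposed may carry one label only). The scFvs were displayed on barcoded MATa yeast, the peptide on MATalpha yeast. The frequency of each diploid, read from paired DNA barcodes, reflects how well the two displayed proteins bind. Read counts were normalised to the haploid input and turned into Kd by a linear fit to BCL2-family pairs of known affinity, for each replicate. Mating was done six times.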

Each variant is given by its three light chain CDRs, as the data file delimits them; those of the parent are KSSQSVLYESRNKNSVA, WASTRES, QQYHRLPLS.
This list holds designs with at most six substitutions.
Numbers give log10(Kd / nM), so 0 is 1 nM and 3 is 1 µM. Smaller is tighter.
"n.d." marks a missing value. The strain was present, yet no cells mated with the target were sequenced in that replicate, which points to weak or no binding.
The authors' rule: three or more of the six replicates give a measured affinity, fewer mean a poor binder.
Nonspecific signal, from three strains lacking the peptide, appeared in 4% of pairings of all light chain designs, centred on 2.64 (5% of these signals below 1.59); values are not corrected for it. Also given: how often the same scFv was detected with the empty control strains, with their mean in brackets.
A sequence measured in both rounds can read differently, since the two assays cover different ranges.

CDR-L1,CDR-L2,CDR-L3,group,log10 Kd (nM) by replicate,control signals
KLSQSFLYESRNKNSVA,DASTRES,QAYHRLPLS,GP_Gen,-0.05 / 0.00 / -0.14 / -0.12 / 0.00 / -0.13,2 of 18 (1.79)
KVPQSHLYESRNKNSVA,NASTRES,QQYHRLPLS,GP_Gen,0.14 / 0.10 / -0.04 / 0.02 / 0.02 / 0.16,2 of 18 (2.86)
KLSGSVLYESRNKNSVA,EASTRES,QQYHRLPLS,GP_Gen,-0.01 / -0.05 / -0.09 / 0.08 / -0.32 / 0.29,0 of 18
KSSQGGLYESLNKNSVA,WASVRES,QQYHVLPLT,Ctrl,1.75 / 1.21 / 1.67 / 1.80 / 2.46 / 1.42,1 of 18 (1.75)
KSSPSVHYESHNKNSVA,NASTRMS,QQYHRLPLS,GP_HC,0.66 / 0.49 / 0.54 / 0.56 / 0.53 / 0.81,2 of 18 (3.28)
KLDQSDLYESRNKNSVA,NASTRES,QQYHRLPLS,GP_Gen,0.12 / -0.18 / -0.23 / -0.05 / 0.03 / -0.08,0 of 18
KLGTGVLYESRNKNSVA,GASTRES,QQYHRLPLS,GP_HC,-0.14 / -0.52 / -0.35 / -0.36 / -0.37 / -0.41,2 of 18 (2.99)
HSSPSVLYESRNKNSVA,NASTREA,QQYHRLPLQ,GP_HC,0.21 / 0.24 / 0.06 / 0.10 / 0.12 / 0.41,0 of 18
KSEQSVLYESTNKNSVA,WASTRES,QTYHRLPLS,Ctrl,n.d. / n.d. / n.d. / n.d. / n.d. / n.d.,0 of 18
KLPQSVLYESRNKNSVA,HASTRLS,QQYHRLPLS,GP_Gen,0.45 / 0.03 / -0.08 / -0.19 / -0.09 / 0.25,1 of 18 (2.34)
KLSQSELYESRNKNSVA,EASTREE,QQYHRLPLS,GP_Gen,-0.08 / -0.05 / -0.31 / -0.24 / -0.25 / -0.17,2 of 18 (2.42)
HSSPSVAGESRNKNSVA,NASTRES,QQYHRLPLS,GP_HC,0.18 / -0.20 / 0.08 / -0.44 / -0.23 / 0.06,0 of 18
KLSGSVLPESRNKNSVA,SATTRMS,QQYHRLPLS,GP_Gibbs,-0.27 / -0.28 / -0.37 / -0.35 / -0.34 / 0.02,2 of 18 (2.37)
KISQSVLYEHRNKNSVA,WASTRES,QQYHRLPLS,Ctrl,0.78 / 0.91 / 0.65 / 0.66 / 0.69 / 0.80,2 of 18 (2.54)
KFSQSFLYESRNVNSVA,GASTRES,QQYHRLPLS,GP_HC,0.10 / -0.11 / -0.04 / -0.15 / -0.09 / -0.08,1 of 18 (2.79)
KSSQGVLYESRNKNSVA,GASLRES,QQYHRLPLS,GP_HC,0.60 / 0.23 / 0.23 / 0.08 / 0.28 / 0.65,0 of 18
KLSQSFLYESRNKNSVA,EASTRMS,QQYHRLPLS,GP_Gen,-0.03 / -0.24 / 0.07 / -0.14 / -0.17 / -0.05,1 of 18 (2.55)
KSSQSVLYESPNKNSVA,EASTRES,QQYHRLPLS,Ctrl,0.81 / 0.61 / 0.29 / 0.56 / 0.62 / 0.48,0 of 18
KFYQSWLYESRNKNSVA,NASQRES,QQYHRLPLS,GP_Gen,0.02 / -0.11 / -0.22 / 0.02 / -0.05 / 0.06,1 of 18 (2.65)
KMSQSVYPESRNKNSVA,WAYTRVT,QQYHRLPLS,Ctrl,2.04 / 1.75 / 1.90 / 1.83 / 2.05 / 1.51,0 of 18
KISQSVLMEDRNKNSVA,DASTRES,QQYHRLPLS,GP_HC,0.20 / 0.28 / 0.03 / 0.07 / 0.01 / 0.08,0 of 18
KLRQSTLYESRNKNEVA,GASTRES,QQYHRLPLS,GP_HC,0.66 / 0.71 / 0.60 / 0.34 / 0.71 / 0.63,3 of 18 (3.22)
KLDQSCLYESRNKNSVA,GASTRES,QQYHRLPLS,GP_HC,-0.32 / 0.00 / -0.33 / -0.50 / -0.20 / -0.22,0 of 18
KFSQSVLKESRNKNSVA,WASTRES,QQYHRLPLS,Ctrl,0.87 / 0.40 / 0.69 / 0.97 / 0.44 / 0.67,0 of 18
KDSQSVLKESRNKNSVA,FASTRLS,QQYHRLPLS,Ctrl,n.d. / n.d. / n.d. / n.d. / n.d. / n.d.,0 of 18
KDSQSALRESHNKNSVA,WASTRES,QQYHRLPLS,Ctrl,2.45 / 2.85 / n.d. / n.d. / n.d. / n.d.,1 of 18 (2.13)
KFSQSVLYESRNSNRVA,NASTRES,QQYHRLPLS,GP_HC,0.52 / 0.58 / 0.45 / 0.37 / 0.48 / 0.62,3 of 18 (2.51)
KSGQSVLYESTNKNSVA,WMSTRES,QQYHRLPLS,Ctrl,n.d. / n.d. / n.d. / n.d. / n.d. / n.d.,0 of 18
KSSQSVLYESRNKNSVA,WASTRND,QKYHRLPLD,Ctrl,1.51 / 2.57 / n.d. / 2.18 / 1.03 / 0.99,0 of 18
KSSQSWSYESRNKNSRA,GASTRES,QQYHRLPLS,Rand,0.07 / 0.06 / 0.33 / 1.09 / 0.24 / 0.38,2 of 18 (1.46)
KSSQSVLEESRNKNSVA,WASTRED,QQYHRLPLS,Ctrl,n.d. / 2.08 / 0.78 / 1.01 / 1.52 / 2.85,1 of 18 (1.49)
KSSQAVLYESRNKNNVA,WAVTRES,QQYHRLPLS,Ctrl,2.34 / n.d. / 2.11 / n.d. / 1.32 / 4.20,1 of 18 (2.28)

For reference, 3 entries of the list once more:

CDR-L1	CDR-L2	CDR-L3	group	log10 Kd (nM) by replicate	control signals
KSSQSWSYESRNKNSRA	GASTRES	QQYHRLPLS	Rand	0.07 / 0.06 / 0.33 / 1.09 / 0.24 / 0.38	2 of 18 (1.46)
KLGTGVLYESRNKNSVA	GASTRES	QQYHRLPLS	GP_HC	-0.14 / -0.52 / -0.35 / -0.36 / -0.37 / -0.41	2 of 18 (2.99)
KFSQSFLYESRNVNSVA	GASTRES	QQYHRLPLS	GP_HC	0.10 / -0.11 / -0.04 / -0.15 / -0.09 / -0.08	1 of 18 (2.79)